Data on 1 compound can be found in publication PMC10762035, “Molecular basis of human trace amine-associated receptor 1 activation” (Nature Communications, 2024).

SMILES strings stand for the structures. Where a chain is given by its changes, count along the chain named. “And” between values parts separate entries of the source, which are not always exact repeats. Identical values can stand only once. Like-named read-outs stand apart in the source and are kept apart here.

One test has as its target T1, hTA1 F195T (Homo sapiens, UniProt Q96RJ0, F195T).
T1 construct: expressed in transfected cells; host or cells: HEK293T
T1 sequence (Q96RJ0 1-339 F195T): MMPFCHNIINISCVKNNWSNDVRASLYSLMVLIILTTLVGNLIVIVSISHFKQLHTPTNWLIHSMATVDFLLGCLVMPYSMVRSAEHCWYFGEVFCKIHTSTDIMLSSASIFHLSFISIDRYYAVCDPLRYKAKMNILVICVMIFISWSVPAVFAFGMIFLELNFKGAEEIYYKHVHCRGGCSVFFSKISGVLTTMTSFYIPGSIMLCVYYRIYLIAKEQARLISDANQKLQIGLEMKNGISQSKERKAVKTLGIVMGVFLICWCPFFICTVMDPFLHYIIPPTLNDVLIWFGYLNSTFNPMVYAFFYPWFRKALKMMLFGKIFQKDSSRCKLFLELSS
The test is described as follows: GloSensor cAMP accumulation assay, F195T mutant.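 Also: cells transiently co-expressing HA-FLAG-tagged hTA1 and the GloSensor cAMP biosensor, luminescence read 30 min after agonist addition at room temperature, concentration-response fitted by nonlinear regression.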 It is filed as cell-based. Background: Cyclic AMP is a second messenger, typically raised through Gs and lowered through Gi signalling.

In a further test the target is T2, hTA1 C178S (Homo sapiens, UniProt Q96RJ0, C178S).
T2 construct: expressed in transfected cells; host or cells: HEK293T
T2 sequence (Q96RJ0 1-339 C178S): T1 sequence (Q96RJ0 1-339 F195T) with C178S, T195F
The test can be described thus: GloSensor cAMP accumulation assay, C178S mutant. It is filed as cell-based. To be noted: for EC50: C178S.

The next test concerns the target T3, hTA1 T271A (Homo sapiens, UniProt Q96RJ0, T271A).
T3 construct: expressed in transfected cells; host or cells: HEK293T
T3 sequence (Q96RJ0 1-339 T271A): T1 sequence (Q96RJ0 1-339 F195T) with T195F, T271A
The test can be described thus: GloSensor cAMP accumulation assay, T271A mutant. The test is classed as cell-based.

In test [1] the target is T4, β2AR-Nterm-hTA1-F112^3.41W (CryoEM Construct) (Homo sapiens, UniProt Q96RJ0, F112W).
T4 construct: FLAG (N); 10xHis (N); TEV protease site (N); expressed in transfected cells; host or cells: HEK293T
The test is described as follows: GloSensor cAMP accumulation assay, cryoEM construct.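 Also: cells transiently co-transfected with the receptor construct and GloSensor cAMP biosensor, luminescence read after 30 min compound exposure at room temperature in the dark as cAMP accumulation.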 It is filed as cell-based.

The next test addresses T5, hTA1 T194A (Homo sapiens, UniProt Q96RJ0, T194A).
T5 sequence (Q96RJ0 1-339 T194A): T1 sequence (Q96RJ0 1-339 F195T) with T194A, T195F
The test is described as follows: GloSensor cAMP accumulation assay, T194A mutant.

Another test has as its target T6, hTA1 V184P (Homo sapiens, UniProt Q96RJ0, V184P).
T6 construct: expressed in transfected cells; host or cells: HEK293T
T6 sequence (Q96RJ0 1-339 V184P): T1 sequence (Q96RJ0 1-339 F195T) with V184P, T195F
The test is described as follows: GloSensor cAMP accumulation assay, V184P mutant. The test is classed as cell-based.

Another test has as its target T7, hTA1 C5S (Homo sapiens, UniProt Q96RJ0, C5S).
T7 construct: expressed in transfected cells; host or cells: HEK293T
T7 sequence (Q96RJ0 1-339 C5S): T1 sequence (Q96RJ0 1-339 F195T) with C5S, T195F
The test is described as follows: GloSensor cAMP accumulation assay, C5S mutant. It is filed as cell-based.

For the compound `CCc1[nH]nc(C(=O)Nc2ccc([C@H]3CNCCO3)cc2)c1C` [ralmitaront], the EC50 at hTA1 F195T (F195T mutant, Figure 5B, each row one independent experiment (3 replicates), read-out: pEC50 values, Mean (converted)) was 0.101 µM and 0.0937 µM; at hTA1 F195T (F195T, n=2, read-out: EC50) it was 0.621 µM; on hTA1 C178S (each row one experiment (N=2), 3 replicates, read-out: pEC50 values, Mean (converted)), 0.31 µM and 0.122 µM; at hTA1 C178S (n=2, read-out: EC50), 0.195 µM; on hTA1 T271A (T271A mutant, Figure 5B, each row one independent experiment (3 replicates), read-out: pEC50 values, Mean (converted)), 0.114 µM and 0.199 µM; at hTA1 T271A (T271A, n=2, read-out: EC50), 0.151 µM. Further, the EC50 was 1.55 µM and 1.18 µM in test [1] (Cryo EM Construct, mean of each independent experiment (3 replicates), read-out: pEC50 values, Mean (converted)); 1.35 µM in test [1] (CryoEM Construct, n=2, read-out: EC50); 0.0257 µM and 0.0694 µM and 0.0568 µM on hTA1 T194A (pEC50 values, Mean, T149A (so in the source), single experiments (3 replicates each)); 0.0468 µM on hTA1 T194A (pEC50 ± SEM, T194A); 0.273 µM on hTA1 V184P (V184P, n=2, read-out: EC50); 0.298 µM and 0.25 µM on hTA1 V184P (hTA1 V184P mutant, Figure 3B source data, each grid row a separate experiment, 3 replicates, read-out: pEC50 values (Mean) (converted)). The EC50 at hTA1 C5S (C5S, n=2, read-out: EC50) was 0.168 µM; on hTA1 C5S (hTA1 C5S, mean of 3 replicates, one line per independent experiment, read-out: pEC50 values, Mean (converted)) it was 0.215 µM and 0.131 µM. Further, at hTA1 C178S (log[Compound], M = -6, single replicates), the “C178S - Normalized Luminescence Counts (N=2)” value turned out to be 69.5866. Further, the “ΔpEC50 values (each mutant value - WT average), Mean” value on hTA1 T271A (T271A mutant minus WT average, Figure 5B) is given as -0.2556.
